Measured values: patent US10829453B2, “Antagonists of the kappa opioid receptor” (University of Kansas, priority 2014, dated 2020)

Protein sequences, listed by entry. Tags and fused reporters are not part of them. Lines headed by an entry give the natural chain unless they say otherwise; changes in a name come on top.
UniProt P41145: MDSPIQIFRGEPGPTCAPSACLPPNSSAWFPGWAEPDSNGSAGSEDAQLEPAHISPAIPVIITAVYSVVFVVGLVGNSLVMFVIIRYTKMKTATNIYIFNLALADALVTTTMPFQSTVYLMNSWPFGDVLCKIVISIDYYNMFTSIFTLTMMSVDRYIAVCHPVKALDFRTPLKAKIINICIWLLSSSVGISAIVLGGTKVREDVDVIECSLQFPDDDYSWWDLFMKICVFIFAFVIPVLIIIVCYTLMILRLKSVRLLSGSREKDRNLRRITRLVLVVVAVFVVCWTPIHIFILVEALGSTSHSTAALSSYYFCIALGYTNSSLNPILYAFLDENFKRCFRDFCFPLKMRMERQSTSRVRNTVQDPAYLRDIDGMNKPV

Assays:
[1] = target: T1, human kappa opioid receptors (Homo sapiens, UniProt P41145); assay: [35S]GTPγS binding (G protein coupling) assay, antagonism of U69,593; assay type: biochemical; details: CHO-hKOR membranes, 100 nM U69,593, n ≥ 3; read-out: IC50 (nM) ± S.E.M. [35S]GTPγS
T1 construct: HA; expressed in transfected cells; host or cells: Chinese hamster ovary (CHO) cells, virally transfected
Experimental: (§1) Chinese hamster ovary (CHO) cells were virally transfected to express HA-tagged recombinant human kappa opioid receptors (CHO-hKOR cell line) and maintained in DMEM/F-12 media (Invitrogen) supplemented with 10% fetal bovine serum, 1% penicillin/streptomycin, and 500 μg/ml geneticin as described in Schmid, C. L.; Streicher, J. M.; Groer, C. E.; Munro, T. A.; Zhou, L.; Bohn, L. M. Functional selectivity of 6′-guanidinonaltrindole (6′-GNTI) at kappa opioid receptors in striatal neurons. […] A DiscoveRx PathHunter™ U2OS cell line expressing βarrestin2 and hKOR (U2OS-hKOR-βarrestin2-DX) was purchased from DiscoveRx Corporation (Fremont, Calif.) and maintained MEM with 10% fetal bovine serum, 1% penicillin/streptomycin, 500 μg/ml geneticin and 250 μg/ml hygromycin B. All cells were grown at 37° C. (5% CO2 and 95% relative humidity).
Briefly, cells were serum starved for 1 hour and membranes were prepared. Each reaction was performed at room temperature and contained 15 μg of membrane protein, 40 μM GDP, ˜0.1 nM [^35S]GTPγS and increasing concentrations of compounds in assay buffer (50 mM Tris-HCl, pH 7.4, 100 mM NaCl, 5 mM MgCl2, 1 mM EDTA). Directly after the addition of test compounds, 100 nM U69,593 was added to yield a total volume of 200 μL. After 1 hour, reactions were quenched by rapid filtration through GF/B filters and radioactivity was counted with a TopCount NXT high throughput screening microplate scintillation and luminescence counter (PerkinElmer Life Sciences).
(§2) All compounds were run in parallel assays in 2-4 replicates per individual experiment. All studies were performed n≥3 independent experiments in multiple replicates. For determination of antagonist inhibition, each individual experiment was normalized to the percentage of maximal U69,593 stimulation. The efficacy and potency values were obtained from the averages of the nonlinear regression analysis performed on each individual curve and are reported as the mean±S.E.M.

[2] = target: T1, human kappa opioid receptors; assay: In-cell western ERK1/2 phosphorylation, inhibition of U69,593 induced ERK phosphorylation; assay type: cell-based; details: hKOR-CHO cells, 100 nM U69,593, n ≥ 3; read-out: IC50 (nM) ± S.E.M. ERK
Experimental: as §1
Briefly, hKOR-CHO cells were plated in 384-well plate at 15,000 cells per well and incubated at 37° C. overnight. After an hour serum starve, cells were treated with compound followed by the addition of 100 nM U69,593 and a 10 minute incubation at 37° C. Cells were fixed, permeabilized, blocked, and stained with primary antibodies for phosphorylated ERK1/2 and total-ERK1/2 (1:300 and 1:400, respectively) at 4° C. overnight. Cells then incubated with Li-Cor secondary antibodies (anti-rabbit IRDye800CW, 1:500; anti-mouse IRDye680LT, 1:1500) and imaged with the Odyssey Infrared Imager (Li-Cor Biosciences, Lincoln, Nebr.) at 700 and 800 nm.
as §2

[3] = target: T2, hKOR (Homo sapiens, UniProt P41145); assay: βArrestin2 recruitment (DiscoveRx PathHunter) assay; assay type: cell-based; details: U2OS-hKOR-βarrestin2-DX cells, 1 μM U69,593, n ≥ 3; read-out: IC50 (nM) ± S.E.M. βarr2
T2 construct: host or cells: U2OS (PathHunter U2OS-hKOR-βarrestin2-DX), purchased engineered cell line
Experimental: as §1
Briefly, 5,000 cells/well were plated overnight in Opti-MEM containing 1% fetal bovine serum, 1% penicillin/streptomycin. Cells were pretreated with antagonist for 15 min at 37° C. followed by the addition of 1 μM U69,593 and a 90 minute incubation at 37° C. PathHunter™ detection reagent was added and cells incubated at room temperature for 60 minutes. Chemiluminescence was detected using a SpectraMax® M5e Multimode Plate Reader (Molecular Devices). βarrestin2 recruitment assays were also performed using an imaging platform (Cellomics) to visulalize translocation of a fluorescent protein tagged βarrestin2 to the membrane of KOR expressing U2OS cells.
as §2

Structure (SMILES)	IC50 [1] [nM]	IC50 [2] [nM]	IC50 [3] [nM]
Cc1ccc(S(=O)(=O)N2CCc3cc(C(=O)NCCN(Cc4ccc(F)cc4)C(C)C)ccc3C2)cc1 [Compound 1d, N-(2-((4-Fluorobenzyl)(isopropyl)amino)ethyl)-2-tosyl-1,2,3,4-tetrahydroisoquinoline-6-carboxamide]	29.1 ± 7.9	406 ± 80	478 ± 110
Cc1ccc(S(=O)(=O)N2CCc3cc(C(=O)NCCN(Cc4ccc(Cl)cc4)C(C)C)ccc3C2)cc1 [Compound 1e, N-(2-((4-Chlorobenzyl)(isopropyl)amino)ethyl)-2-tosyl-1,2,3,4-tetrahydroisoquinoline-6-carboxamide]	10 ± 1.4	400 ± 87	392 ± 91
Cc1ccc(S(=O)(=O)N2CCc3cc(C(=O)NCCN(Cc4ccc(Br)cc4)C(C)C)ccc3C2)cc1 [Compound 1f, N-(2-((4-Bromobenzyl)(isopropyl)amino)ethyl)-2-tosyl-1,2,3,4-tetrahydroisoquinoline-6-carboxamide]	19.7 ± 6.6	258 ± 93	388 ± 85
Cc1ccc(S(=O)(=O)N2CCc3cc(C(=O)NCCN(Cc4ccc(F)cc4)C(C)(C)C)ccc3C2)cc1 [Compound 1j, N-(2-((4-Fluorobenzyl)(tert-butyl)amino)ethyl)-2-tosyl-1,2,3,4-tetrahydroisoquinoline-6-carboxamide]	3.7 ± 1.2	76 ± 24	104 ± 32
Cc1cc(C)c(S(=O)(=O)N2CCc3cc(C(=O)NCCN(Cc4ccc(F)cc4)C(C)(C)C)ccc3C2)c(C)c1 [Compound 1k, N-(2-((4-Fluorobenzyl)(tert-butyl)amino)ethyl)-2-(mesitylsulfonyl)-1,2,3,4-tetrahydroisoquinoline-6-carboxamide]	85 ± 20	1200	880 ± 67
Cc1ccc(S(=O)(=O)N2CCc3cc(C(=O)NCCN(Cc4ccc(Cl)cc4)C(C)(C)C)ccc3C2)cc1 [Compound 1l, N-(2-((4-Chlorobenzyl)(tert-butyl)amino)ethyl)-2-tosyl-1,2,3,4-tetrahydroisoquinoline-6-carboxamide]	1.6 ± 0.5	107 ± 17	84 ± 20
Cc1ccc(S(=O)(=O)NCc2ccc(C(=O)NCCN(Cc3ccccc3)C(C)C)cc2)cc1 [ML140, reference compound]	138 ± 54	591 ± 87	403
